From BindingDB's records for doi:10.1016/0024-3205(76)90375-1 (1976) come the findings set out here.

The chains behind the UniProt entries cited, without tags or fusion partners.
UniProt P32305, whole entry: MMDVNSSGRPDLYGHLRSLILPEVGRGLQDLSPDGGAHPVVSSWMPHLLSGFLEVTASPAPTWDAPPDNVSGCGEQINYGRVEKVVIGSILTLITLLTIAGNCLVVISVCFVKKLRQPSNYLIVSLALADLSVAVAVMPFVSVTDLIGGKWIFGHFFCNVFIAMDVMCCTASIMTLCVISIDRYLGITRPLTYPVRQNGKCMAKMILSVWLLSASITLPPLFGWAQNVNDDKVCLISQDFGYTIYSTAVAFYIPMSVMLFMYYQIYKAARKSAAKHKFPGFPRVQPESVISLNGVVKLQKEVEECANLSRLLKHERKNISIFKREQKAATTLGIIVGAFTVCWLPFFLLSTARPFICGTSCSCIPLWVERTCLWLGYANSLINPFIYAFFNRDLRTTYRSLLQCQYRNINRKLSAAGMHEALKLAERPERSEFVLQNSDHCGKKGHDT

Where “and” joins values, the source holds several entries; their conditions need not be identical. Identical values can stand only once.

This test addresses 5-hydroxytryptamine receptor 7 (Rattus norvegicus, UniProt P32305).

What is called Ki is a measure of affinity in units of concentration, obtained from inhibition or displacement. The low end stands for tighter binding, the high end for weaker binding. Compound `Clc1cccc(Cl)c1N=C1NCCN1` [2-(2,6-dichloroanilino)-2-imidazoline] returned a Ki of 580 nM. That is a sub-micromolar value. The result for `CCN(CC)C(=O)[C@@H]1C=C2c3cccc4[nH]cc(c34)C[C@H]2N(C)C1` [(4R,7R)-N,N-diethyl-6-methyl-6,11-diazatetracyclo[7.6.1.0^{2,7}.0^{12,16}]hexadeca-1(16),2,9,12,14-pentaene-4-carboxamide] reads 380 nM and 270 nM.
